pIC50: −log10 of the molar value.
Target: Transporter (Rattus norvegicus, UniProt Q63380)
Assay: Antagonist activity at rat cerebral cortex membrane NET incubated for 10 mins in presence of [3H]-NE
Type: cell membranes

Amino acid sequences for entries named in this document (tags omitted).
UniProt Q63380, whole entry: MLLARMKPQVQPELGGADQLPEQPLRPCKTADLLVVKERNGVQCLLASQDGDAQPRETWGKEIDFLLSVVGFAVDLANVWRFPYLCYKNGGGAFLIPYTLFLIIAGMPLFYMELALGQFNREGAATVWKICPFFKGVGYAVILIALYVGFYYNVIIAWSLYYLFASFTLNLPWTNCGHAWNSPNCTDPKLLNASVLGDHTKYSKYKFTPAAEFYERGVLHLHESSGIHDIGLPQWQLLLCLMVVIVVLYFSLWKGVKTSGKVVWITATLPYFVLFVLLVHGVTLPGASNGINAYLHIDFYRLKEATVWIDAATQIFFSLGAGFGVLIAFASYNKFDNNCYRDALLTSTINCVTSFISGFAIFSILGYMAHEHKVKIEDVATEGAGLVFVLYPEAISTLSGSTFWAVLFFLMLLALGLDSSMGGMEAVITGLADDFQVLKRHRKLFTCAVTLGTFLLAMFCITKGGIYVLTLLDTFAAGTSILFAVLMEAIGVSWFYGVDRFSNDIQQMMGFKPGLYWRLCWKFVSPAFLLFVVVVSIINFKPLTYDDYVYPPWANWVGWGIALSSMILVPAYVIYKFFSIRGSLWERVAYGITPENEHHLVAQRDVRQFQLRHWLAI

Molecule `CNCCC(Oc1ccccc1OC)c1ccccc1` (stereo unspecified) [NISOXETINE] has a pIC50 of 7.45.

Source: ChEMBL document CHEMBL6083240, “Design, synthesis and biological evaluation of arylpropylamine derivatives as potential multi-target antidepressants” (Bioorg Med Chem, 2024)
